Results published in US10450306B2, “Isoxazole analogs as FXR agonists and methods of use thereof” (Enanta Pharmaceuticals, Inc., priority 2016, dated 2019).

Protein sequences, listed by entry. Tags and fused reporters are not part of them.
UniProt Q96RI1, whole entry: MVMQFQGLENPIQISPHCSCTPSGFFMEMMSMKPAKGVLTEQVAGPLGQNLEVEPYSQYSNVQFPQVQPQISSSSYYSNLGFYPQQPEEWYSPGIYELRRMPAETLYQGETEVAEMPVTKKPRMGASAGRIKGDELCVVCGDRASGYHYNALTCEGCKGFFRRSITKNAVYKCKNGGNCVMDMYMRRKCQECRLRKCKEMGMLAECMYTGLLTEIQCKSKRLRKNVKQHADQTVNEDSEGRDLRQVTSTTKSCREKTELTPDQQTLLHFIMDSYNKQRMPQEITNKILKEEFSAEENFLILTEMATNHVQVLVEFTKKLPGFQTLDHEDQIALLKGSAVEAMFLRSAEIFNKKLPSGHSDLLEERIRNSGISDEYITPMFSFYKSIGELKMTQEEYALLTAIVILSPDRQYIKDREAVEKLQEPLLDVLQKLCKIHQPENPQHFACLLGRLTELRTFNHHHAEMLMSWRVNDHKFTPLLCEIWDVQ

Target: human FXR (NR1H4) (Homo sapiens, UniProt Q96RI1)
Experiment: Human FXR (NR1H4) Assay: Gal4 promoter driven luciferase reporter transactivation in CHO cells (Indigo Bioscience kit IB00601)
Format: cell-based
Settings: for EC50: Human FXR (NR1H4) reporter assay, potency ranges; for Efficacy (%): efficacy normalized to CDCA set as 100%

Row | Compound | EC50 [µM] | Efficacy (%)
1 | CN(Cc1c(-c2c(Cl)cccc2Cl)noc1C1CC1)C1CCN(c2nc3ccc(C(=O)NS(=O)(=O)c4ccc(C(C)(C)C)cc4)cc3s2)CC1 | 0.1 to 1 | 114
2 | CN(Cc1c(-c2c(Cl)cccc2Cl)noc1C1CC1)C1CCN(c2nc3ccc(C(=O)NS(=O)(=O)N(C)C)cc3s2)CC1 | > 1 | 98
